For some of these results: Shown are results outside the selection of highest values, which stands elsewhere. Only a part is listed here, and it is no random draw.

The test system of test [1] is HEK293T (UBE3A T485A transfected, BAR Wnt reporter). Description: Renilla luciferase signal (cell health) relative to plate median (fold (linear ratio)); higher = higher Renilla signal. Conditions: 24 h. The method in brief:
(§1)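 Chemicals were robotically dosed at 0.01–100 uM for 24 h onto HEK293T cells, starting four hours after transfection with a BAR firefly luciferase Wnt reporter, TK-Renilla and an expression plasmid. The cells had been plated at 4500 cells/well in DMEM with 10% FBS at 37°C and 5% CO2. Following a Dual-Glo luciferase readout, the firefly/Renilla ratio served as the Wnt activity measure and raw Renilla as the cell health measure, both median-centred on each plate. Each value is the mean of four biological replicates.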

Test [2] has the same test system. Description: Wnt reporter firefly/Renilla luciferase ratio relative to plate median (fold (linear ratio)); higher = more Wnt/beta-catenin reporter activation. Conditions: 24 h. The method in brief:
as §1

On to `CCOc1nc(C(Cl)(Cl)Cl)ns1` [Etridiazole], for which the Renilla luciferase signal in test [1] (concentration: 0.01 uM) was 0.92; in test [1] (concentration: 0.1 uM), 1.09; in test [1] (concentration: 1 uM) it was 1.03; in test [1] (concentration: 10 uM), 1.12; in test [1] (concentration: 100 uM), 1.7. Besides, the “Wnt reporter firefly/Renilla luciferase ratio” value came to 1.25 in test [2] (concentration: 0.01 uM); 1.14 in test [2] (concentration: 0.1 uM); 0.971 in test [2] (concentration: 1 uM); 1.07 in test [2] (concentration: 10 uM); 1.45 in test [2] (concentration: 100 uM).

The values are drawn from the supplement of paper PMC9254222.
